The source of these data is article PMC8742647 (Clinical and Translational Science, 2021).

Data set [1] is described as follows: prediction of CLt,human by physiologically based scaling using PXB-mice. Also noted: species or system humans.
Data set [2] is described as follows: prediction of CLt,human by multispecies allometric scaling, rule of exponent.
The nature of data set [3]: prediction of CLt,human by single-species allometric scaling from PXB-mice. Also noted: species or system humans.
Data set [4] in a line: prediction of CLt,human by in vitro–in vivo extrapolation. Also noted: species or system humans.
The conditions of data set [5]: for Fold error (predicted/observed), FCIM: predicted/observed CLt,human.
For data set [6] the following is noted: fraction unbound in rat plasma; ref Table S1; cited from earlier work.
The nature of data set [7]: fraction unbound in plasma, equilibrium dialysis. It counts as in vitro ADME, humans. The settings on record: fraction unbound in human plasma. On the technique in general: Equilibrium dialysis compares concentrations on both sides of a semipermeable membrane.
The conditions of data set [8]: ref Table S1; cited from earlier work.

As to `CC(C)N(CCC(C(N)=O)(c1ccccc1)c1ccccn1)C(C)C` (centres unmarked) [Disopyramide], in data set [1], the “Fold error (predicted/observed), PXB‐PBS” value is 5.15. Moreover, in data set [2], the “Fold error (predicted/observed), ROE” value is reported as 8.17. For the same compound, in data set [3], the “Fold error (predicted/observed), PXB‐SSS” value is on record as 4.14. Besides, the “Fold error (predicted/observed), IVIVE” value in data set [4] is reported as 1.38. Besides, in data set [5] (from CLt in rats, monkeys and dogs and fu,p ratio rat/human), the “Predicted CLt,human, FCIM” value was 4.56 mL/min/kg. Further, the “Fold error (predicted/observed), FCIM” value in data set [5] was 5.06.
`COc1ccccc1Oc1c(NS(=O)(=O)c2ccc(C(C)(C)C)cc2)nc(-c2ncccn2)nc1OCCO` [Bosentan]: in data set [1], the “Fold error (predicted/observed), PXB‐PBS” value is listed as 0.66. The “Fold error (predicted/observed), ROE” value in data set [2] is reported as 0.80. Moreover, in data set [6], the “f u,p, Rats” value is 0.012. The “Fold error (predicted/observed), PXB‐SSS” value in data set [3] was 0.56. Also, the “Fold error (predicted/observed), IVIVE” value in data set [4] was 0.32. Moreover, the “Fold error (predicted/observed), FCIM” value in data set [5] is on record as 2.56. Besides, the “f u,p, Humans” value in data set [7] was 0.023.
`CC(=O)C[C@@H](c1ccccc1)c1c(O)c2ccccc2oc1=O` [(S)‐Warfarin]: the “CLt, Monkeys” value in data set [8] is 0.102 mL/min/kg.
